pEC50, pIC50: −log10 of the molar value. Counter-ions that a name gives are not always drawn.
Key:
[1] = tested on: OE33 Esophageal Adenocarcinoma cell line; assay: OE33 Colony Formation Assay; conditions: read-out: OE33 Colony Formation Assay EC50; 200 cells/well, compound every 48 hours for 7 days, CellTiter-Glo; tested form: HCl
Protocol: OE33 Colony Formation Assay:
The OE33 Esophageal Adenocarcinoma cell line was cultured and plated into 96-well tissue culture plates under sparse conditions (200 cells/well). Test compounds were serially diluted in DMSO and then into culture media (final DMSO concentration=0.1%). Compound/media was then added to cells every 48 hours for a total of 7 days. Clonogenic growth was assessed using the CellTiter-Glo reagent, according to manufacturer (Promega) specifications. Percent inhibition was calculated as the percent of luminescence normalized to control (0.1% DMSO) wells. Nonlinear regression curve fitting was performed using GraphPad Prism software to determine EC50's.

By UniProt entry, the sequences of proteins in these tests, tags left out. Residues count along the entry.
UniProt P46531, 1754-2555 limits assumed: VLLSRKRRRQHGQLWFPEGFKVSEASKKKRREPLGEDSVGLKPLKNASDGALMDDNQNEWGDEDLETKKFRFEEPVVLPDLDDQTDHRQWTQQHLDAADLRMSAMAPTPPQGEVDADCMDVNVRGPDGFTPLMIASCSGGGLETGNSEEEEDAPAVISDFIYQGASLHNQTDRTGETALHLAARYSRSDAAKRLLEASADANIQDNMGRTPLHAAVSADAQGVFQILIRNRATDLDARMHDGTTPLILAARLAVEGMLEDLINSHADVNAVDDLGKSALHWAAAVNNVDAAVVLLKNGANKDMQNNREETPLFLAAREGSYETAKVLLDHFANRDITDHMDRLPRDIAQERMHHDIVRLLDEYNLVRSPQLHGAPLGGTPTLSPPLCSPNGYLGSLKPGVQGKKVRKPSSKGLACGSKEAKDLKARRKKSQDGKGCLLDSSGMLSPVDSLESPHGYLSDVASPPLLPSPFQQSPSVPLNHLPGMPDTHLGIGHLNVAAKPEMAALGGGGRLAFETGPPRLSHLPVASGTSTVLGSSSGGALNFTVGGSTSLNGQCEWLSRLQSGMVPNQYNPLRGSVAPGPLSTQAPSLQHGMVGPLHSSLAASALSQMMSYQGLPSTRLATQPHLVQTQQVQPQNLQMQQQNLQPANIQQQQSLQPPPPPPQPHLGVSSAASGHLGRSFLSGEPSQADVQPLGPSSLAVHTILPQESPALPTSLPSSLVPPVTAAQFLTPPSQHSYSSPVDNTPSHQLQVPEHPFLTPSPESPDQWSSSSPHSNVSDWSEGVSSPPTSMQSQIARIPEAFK

Notch1 = Notch1 (Homo sapiens, UniProt P46531); assay: Notch1 Reporter Assay (CSL-responsive luciferase, doxycycline-induced Notch-ICD in 293A cells); conditions: read-out: Notch1 Reporter Assay IC50, 25 ng/mL Dox, 24 h, luciferase normalized to cell viability, tested form: HCl
Protocol: 293A cells expressing 1) pCMV-Tet-On 3G, 2) pLV[Tet]-Puro-TRE3G>Notch1-ICD, 3) pLV[Tet]-Puro-TRE3G>Notch2-ICD, 4) pLV[Tet]-Puro-TRE3G>Notch3-ICD, and 5) pCSL-RElement-Luc were used. When Doxycycline is added, the Tet-ON gene activates expression of hNotch1ICD, which together with endogenous NTC components binds to CSL responsive elements (pCSL-RElement-Luc) and expresses luciferase. 1×10^4 cells are plated in 100 μL (96-well format). 24 h later, compounds (10 mM stock in DMSO) are diluted in DMSO to 200×, then added (5 ul into 1 mL) to cell culture media containing 50 ng/mL Dox. This is then added 1:1 to cells. Final DMSO=0.25%, Dox=25 ng/mL. After 24 h, media is discarded, and cells are lysed in passive lysis buffer (Promega). Cells are rocked at room temperature for 15 min and then lysate is divided for luciferase assay (Luciferase Assay System, Promega) and cell viability (CellTiter Glo 2.0, Promega). Raw luciferase is normalized to cell viability, and then scaled to DMSO wells. Results are analyzed and IC50's are determined in GraphPad by nonlinear regression curve fitting (4 parameter) of dose response curves.

Question: With `COc1cc(-c2cc(C(F)(F)F)cc3c2n(C)c(=O)n3CC(=O)Nc2ccc(SC)cc2)cc(F)c1OCc1nnc[nH]1` [SSTN-498, 2-(4-(4-((4H-1,2,4-triazol-3-yl)methoxy)-3-fluoro-5-methoxyphenyl)-3-methyl-2-oxo-6-(trifluoromethyl)-2,3-dihydro-1H-benzo[d]imidazol-1-yl)-N-(4-(methylthio)phenyl)acetamide hydrochloride] as the molecule, how does the pEC50 [1] read?
Answer: 5.52

Question: What about the pIC50 (Notch1) of the same molecule?
Answer: 5.09
